Experimental data reported in patent US20230348453A1, “HALOGENATED-HETEROARYL AND OTHER HETEROCYCLIC KINASE INHIBITORS, AND USES THEREOF” (iOmx Therapeutics AG, priority 2020, published 2023).

Columns and labels:
[1] = target: SRC (GST-HIS-tag) (Homo sapiens (Human), UniProt P12931); format: biochemical
[2] = tested on: SIK3 WT and KO MC38 clones; test: TNF-mediated killing of SIK3 wildtype vs SIK3 knockout MC38 clones (CTG); format: cell-based, mouse; settings: sub-optimal TNF (<10 ng/ml), 72 h

SMILES: Cc1nc(Nc2ncc(C(=O)Nc3c(C)csc3Cl)s2)cc(N2CCN(CCO)CC2)n1 [Compound C7, N-(2-chloro-4-methylthiophen-3-yl)-2-((6-(4-(2-hydroxyethyl)piperazin-1-yl)-2-methylpyrimidin-4-yl)amino)thiazole-5-carboxamide]
- IC50 [1]: < 1.5 nM
- TNF-mediated killing in SIK3 WT vs KO MC38 clones [2]: induced TNF-mediated killing only in SIK3 WT clones
